Assay outcomes: PubChem BioAssay, Broad Institute
This is a sample that favours compounds with a hit; in the whole collection about 2.1% have one here.
Yeast UUG start = alters start codon recognition fidelity in yeast. 350,000 tested, 0.13% active. activity score, % at 18.7 µM. S. cerevisiae UUG-firefly luciferase reporter, luminescence/redox ratio;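 active = replicate mean at a twofold rise or more, about +100% in these data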;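 also: firefly luciferase made from a UUG start codon reports start codon fidelity; reporter light over untreated wells divided by growth signal over untreated wells; some hits fall short of that in this replicate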
Wnt act = Wnt/beta-catenin pathway activation. Wnt/beta-catenin reporter cell assay, activator, plate reader. activation, % at 9.35 µM. 1.2% of 300,000 active; in the data active means activation above about 30%, passing the limit was not always enough; inconclusive means no clear call, values can overlap the other calls
miR-122 sensor = inhibitors of miR-122 in Huh7 cells; Huh7 miR-122 Renilla luciferase sensor, 48 h; neutral wells = 0, positive control = 100; activation (reporter increase), % at 12.5 µM; 0.3% of 340,000 active; AID 602342;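 active means mean replicate activation score at least 90 and every replicate individually at or above 90; inconclusive means only one of the two criteria met; inactive means neither criterion met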;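 further: higher luciferase means less miR-122 activity so hits act as miR-122 inhibitors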
MITF TRPM1 inh = reduces MITF-dependent TRPM1 promoter luciferase signal | SK-MEL-5 TRPM1 promoter luciferase, 24 h | 0.83% of 330,000 active | inhibition, % at 12.5 µM;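 active means mean inhibition across replicates of 60% or more, whatever share of single replicates reaches that level; inconclusive means some that reach 60%, reason not given; inactive means mean inhibition across replicates below 60%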
MITF act = MITF TRPM1 promoter activation in melanoma cells | SK-MEL-5 TRPM1-promoter luciferase, 24 h; % of positive control, neutral wells = 0 | activation, % at 12.5 µM | 0.75% of 300,000 active | AID 588334;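 active means mean activation of at least 80% with every replicate also reaching 80%; inconclusive means mean reaches 80% but some replicate falls short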
PGC1a acetyl inh = lowers PGC1a acetylation signal in U2OS cells. 0.17% of 350,000 active. AID 651687. AlphaScreen anti-acetyl-lysine; with virally co-expressed GCN5 acetyltransferase. inhibition, % at 15.6 µM;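 active means every replicate shows inhibition of at least 40%; inconclusive means mean inhibition at least 40% but some replicate below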
Numbers stand for hits; – = inactive; ? = inconclusive; · = no result given; [ ] = another dose, or the depositor's remark.

SMILES	Yeast UUG start	Wnt act	miR-122 sensor	MITF TRPM1 inh	MITF act	PGC1a acetyl inh
Cc1ccc(NC(=O)C2C(c3ccccc3)C2(Cl)Cl)c(C)c1 (stereo unspecified)	–	–	–	–	·	71
N#C[C@H]1[C@H](c2ccccc2C2=CCCCC2)[C@H](CO)N1C(=O)NC1CCCCC1	·	·	·	·	·	–
COC(=O)Cc1ccc(OCc2ccc(Cl)nc2)cc1	–	–	–	–	95	–
CC(=O)C(Cc1ccc(Cl)nc1)Cc1ccc(Cl)nc1	·	–	·	–	–	–
O=C(CCn1cccn1)N1CCCC(N2CCN(c3cccc(C(F)(F)F)c3)CC2)C1 (stereo unspecified)	–	32	–	–	–	–
O=C(Cn1cccn1)N1CCCC(N2CCN(c3cccc(C(F)(F)F)c3)CC2)C1 (stereo unspecified)	–	–	·	–	–	–
CCOC(=O)N(C)C[C@@H]1OCc2ccccc2-c2ccccc2C(=O)N([C@H](C)CO)C[C@H]1C	–	·	·	·	·	–
COc1cc(N=Nc2cccc(S(N)(=O)=O)c2)c2ccccc2c1N	–	–	·	74	–	·
CCc1ccc(/C=N/Nc2ncnc3nc[nH]c23)cc1	·	53	–	–	–	–
C[C@H](CO)N1C[C@H](C)[C@@H](CN(C)C(=O)Oc2ccccc2)OCc2ccccc2-c2ccccc2C1=O	–	·	·	·	·	–
CO[C@@H]1CC[C@H]2CCN(C)C(=O)[C@H](C)[C@H](OC)CN(C)C(=O)c3cc(C#N)ccc3OC[C@H]1O2	·	·	·	·	·	–
CC(C)C(=O)Nc1cc(S(=O)(=O)Nc2cccc(Cl)c2)ccc1Cl	–	–	256	–	–	–
CCCC#Cc1cnc2c(c1)C(=O)N([C@H](C)CO)C[C@@H](C)[C@@H](CN(C)Cc1ccncc1)O2	–	·	–	·	·	–
Cc1ccccc1N(C(=O)CCCC(=O)Nc1ccccn1)C(C(=O)NC1CCCC1)c1ccc(O)cc1 (stereo unspecified)	–	–	132	–	–	–
Cc1ccc(N(C(=O)CCCC(=O)Nc2ccccn2)C(C(=O)NC2CCCC2)c2ccc(O)cc2)cc1C (stereo unspecified)	–	–	–	–	–	–
COc1ccc(CN2C[C@@H](O)COC[C@H]3O[C@@H](CC(=O)NCCN4CCCC4)CC[C@@H]32)cc1	·	·	–	·	·	–
CO[C@@H]1CN(C)C(=O)c2ccc(NS(=O)(=O)c3ccccc3C)cc2OC[C@H](C)N(C)C[C@H]1C	·	·	·	·	·	–
CCCCCOc1ccc(Br)cc1/C(C)=N/NC1=NCCN1	–	–	–	70	–	–
COC(=O)/C(=C1/Oc2ccc(C(C)(C)C)cc2S1)C(F)(F)F	·	37	·	–	–	–
COC(=O)/C(=C1/Oc2cc(C)oc(=O)c2S1)C(F)(F)F	–	–	–	90	–	–
O=C(O)c1ccccc1SCc1cn2cc(Cl)ccc2n1	·	43	·	–	–	·
O=C(Nc1cc(Cl)ccc1-n1cncn1)c1ccc([N+](=O)[O-])s1	–	·	–	62	–	–
O=C(Nc1cc(Cl)ccc1-n1cncn1)c1ccco1	–	–	–	–	–	·
CCc1ccc(NC(=O)CSc2nncn2-c2cccnc2)cc1	–	–	–	–	94	–
CCCCCC(=O)N/N=C/c1ccc([N+](=O)[O-])o1	·	–	–	–	–	–
SMILES	Yeast UUG start	Wnt act	miR-122 sensor	MITF TRPM1 inh	MITF act	PGC1a acetyl inh
O=C(Cc1ccc2c(c1)OCO2)NN=Cc1ccc([N+](=O)[O-])o1	–	–	–	73	–	–
O=C(N/N=C\c1ccc([N+](=O)[O-])o1)C1COc2ccccc2O1 (stereo unspecified)	·	–	·	75	–	–
Cc1ccc(NCC(=O)N/N=C\c2ccc([N+](=O)[O-])o2)cc1	–	–	–	68	–	–
Cc1noc(C)c1S(=O)(=O)N(C)C[C@@H]1Oc2ccc(NC(=O)CCCCCC(=O)Nc3ccccc3N)cc2CC(=O)N([C@@H](C)CO)C[C@@H]1C	·	·	·	·	·	–
COc1cccc(C(=O)Nc2ccc3c(c2)C(=O)N(C)C[C@@H](OC)[C@@H](C)CN(C(=O)C2CCCC2)[C@H](C)CO3)c1	–	·	–	·	·	·
CCCc1ccc(-c2ccc(/C=C/C(=O)O)cc2)nc1	·	–	·	86	–	·
CCCCCc1ccc(-c2ccc(/C=C/C(=O)O)cc2)nc1	–	–	–	–	–	·
O=C1c2ccccc2C(=O)C1c1ccnc2ccccc12	–	43	–	–	–	–
CC(=O)NC1C(c2nc3ccccc3s2)=C(c2ccccc2)C(=O)N1c1ccc(C)cc1 (stereo unspecified)	–	33	–	–	·	–
CNC(=O)c1nnsc1S(=O)c1ccc(Cl)cc1 (stereo unspecified)	·	–	·	?	–	–
CCCNC(=O)c1nnsc1S(=O)c1ccc(Cl)cc1 (stereo unspecified)	·	–	·	67	–	–
CCCNC(=O)c1nnsc1S(=O)(=O)c1ccc(Cl)cc1	·	–	·	86	–	–
C[C@@H]1CN([C@H](C)CO)C(=O)c2cc(/C=C/c3ccccc3)cnc2O[C@@H]1CN(C)C(=O)c1ccccc1	–	·	–	·	·	–
CCC(=O)N[C@H]1CC[C@@H](CCn2cc(CN(C)C)nn2)O[C@@H]1CO	–	·	·	·	·	–
COc1ccc(Oc2nnc(C)c3ccccc23)cc1	–	42	–	–	89	–
COc1ccc(-c2nnc3c4ccccc4c(C)nn23)cc1	–	47	–	–	–	–
COc1cccc(S(=O)(=O)N[C@H]2CC[C@H](CCN)O[C@@H]2CO)c1	·	·	·	·	·	–
C[C@@H]1CN([C@@H](C)CO)C(=O)c2cccc(NC(=O)c3cnccn3)c2O[C@H]1CN(C)S(=O)(=O)c1ccc(F)cc1	·	·	–	·	·	–
OC(COc1ccc(OCc2ccccc2)cc1)CN1CCOCC1 (stereo unspecified)	–	·	–	–	–	–
OC(COc1ccc(OCc2ccccc2)cc1)CN1CCCCC1 (stereo unspecified)	–	·	–	–	88	–
C[C@@H]1CCCCO[C@@H](CN(C)C(=O)C2CCCCC2)[C@H](C)CN([C@@H](C)CO)C(=O)c2cc(NC(=O)C3CCCCC3)ccc2O1	–	·	–	·	·	–
CCN(CC)C(=O)CSc1nnc2nnc3cc(Cl)ccc3n12	–	–	–	72	·	–
C[C@@H](O)C#Cc1cnc2c(c1)C(=O)N([C@@H](C)CO)C[C@H](C)[C@H](CN(C)C(=O)Cc1ccccn1)O2	–	·	–	·	·	–
Cc1cc(Br)c(OCc2ccc(C(=O)N/N=C/c3ccc[nH]3)cc2)c(Br)c1	–	–	–	·	·	87
CCC(=O)N(C)C[C@@H]1Oc2ncc(C#CCc3ccccc3)cc2C(=O)N([C@H](C)CO)C[C@@H]1C	–	·	–	·	·	101
Cc1ccccc1-c1cnc2c(c1)C(=O)N([C@H](C)CO)C[C@@H](C)[C@H](CN(C)Cc1ccccc1F)O2	–	·	121[16.7 µM]	·	·	–
C[C@@H]1CN([C@H](C)CO)C(=O)c2cc(-c3ccccc3F)cnc2O[C@@H]1CN(C)Cc1ccccc1F	–	·	–	·	·	–
